# Apparent affinities of Ab-14 variants for a coronavirus HR2 peptide

The measurements come from Engelhart et al. 2022 (doi:10.1038/s41597-022-01779-4) through the FLAb antibody collection.

Target peptide (SARS-CoV-2 spike, HR2 region): PDVDLGDISGINAS

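Phage display of a naive human antibody library on the peptide gave the parent. Library AAYL49 holds single substitutions and randomly drawn double and triple substitutions in the CDRs. Affinity was read by AlphaSeq, a pooled yeast mating assay with surface-displayed partners. Binding brings cells together so that they mate, and sequencing counts the barcode pairs among the diploids. Scores were corrected for input abundance and mapped to Kd with protein pairs of known affinity run in the same pool. Mating was done three times.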

Ab-14 is the parent antibody, in scFv form: VH, then a (GGGGS)3 linker, then VL. The light chain is unchanged in all variants.
VH: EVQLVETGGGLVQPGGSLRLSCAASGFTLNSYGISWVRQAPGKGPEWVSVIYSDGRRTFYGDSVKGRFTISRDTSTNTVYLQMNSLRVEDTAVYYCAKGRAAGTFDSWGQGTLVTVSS
VL: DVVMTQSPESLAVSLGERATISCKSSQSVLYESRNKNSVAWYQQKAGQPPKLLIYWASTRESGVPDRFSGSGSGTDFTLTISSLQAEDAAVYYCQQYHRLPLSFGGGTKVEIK

Each variant is given by its three heavy chain CDRs, as the data file delimits them; those of the parent are GFTLNSYGIS, VIYSDGRRTFYGDSVK, GRAAGTFDS.
Scale: log10 of Kd in nM, estimated from mating counts; low values are strong binders.
Replicates are averaged; those with no signal do not enter the mean.
An entry "no signal" has no value in the source: the pair was not observed among the diploids in any replicate. This suggests poor binding but is not conclusive.
Order: sorted from the lowest average up, undetected variants last.
As a blank, each scFv also met three strains without target: over library AAYL49, 15% of these pairings were detected, typically at 4.06 and seldom below 2.83.

CDR-H1,CDR-H2,CDR-H3,mean log10 Kd (nM),detected
GFTLNSYGIS,VIYSDGRRTFMGDSEK,GRTAGTFDS,1.28,3 of 3
GFGLNSYGIS,VIYPDGRRTFYGDSVK,GRAAGHFDS,1.29,3 of 3
LFTLNHYGIS,VIYSDGRRTFYGDNVK,GRAAGTFDS,1.46,3 of 3
GFTLNSYGIS,VIYSDGRRTFYGDSVK,DRFVGTFDS,1.63,3 of 3
GFTLNSYGIS,VIYSDGRRTFTGDSVW,GRAAGTFNS,2.71,3 of 3
GFTLNSYGIS,VITSDGRRTFYGDSVK,VRDAGTFDS,2.93,1 of 3
GFLLNSYGIS,VIYSDGRFTCYGDSVK,GRAAGTFDS,2.94,1 of 3
GFTLNSDGIS,VIYSDGRRTLYMDSVK,GRAAGTFDS,3.27,1 of 3
GFTLESYGIS,VIYSDGRRTFYGDSVK,GRAAGNFVS,3.30,1 of 3
GFILNSYGIS,VIYSYGRRTFYGDSWK,GRAAGTFDS,3.38,1 of 3
GFTWNSYYIS,VIYVDGRRTFYGDSVK,GRAAGTFDS,3.46,1 of 3
GFELNSYGIS,MIYSVGRRTFYGDSVK,GRAAGTFDS,3.70,1 of 3
GFTLWSYGIS,NIYSDGRRTFYGDSVK,GRSAGTFDS,3.91,1 of 3
GFTLNSYGIS,NIYSDGRRTFYSQSVK,GRAAGTFDS,4.05,1 of 3
GFTLNSYGIS,VGYSDGRRTFYGDSVK,GRWGGTFDS,4.09,1 of 3
GFTLNSYGIS,VIYSDWTRTFYVDSVK,GRAAGTFDS,4.20,1 of 3
GFTLNSYPIS,VIYSHGRRTPYGDSVK,GRAAGTFDS,4.30,1 of 3
GFTLNSYGIS,VIYSWGPRTFYGDSVK,GRQAGTFDS,4.67,2 of 3
GFTLNSYGIA,VIYSVGRRTFYGDSVK,GRYAGTFDS,4.74,2 of 3
GFTLGSYGIS,KRYSDGRRTFYGDSVK,GRAAGTFDS,4.98,1 of 3
GFTLNSYGIS,LIYSDGRRTFYGYSVK,GRAAGTFDI,5.22,1 of 3
GFTLNSYGIS,VIQSDCRRTFYGDSVK,GRAAGDFDS,5.36,2 of 3
GFWLNSYGIS,VINSDGIRTFYGDSVK,GRAAGTFDS,5.49,1 of 3
GFTLNVYGIS,VIYRDGRRTFYGDSVK,GRAAITFDS,5.62,1 of 3
GFHLNSGGIS,VIYSDGRRTFYGDSVK,GRAPGTFDS,6.56,1 of 3

Further variants, results first:

mean log10 Kd (nM),detected,CDR-H1,CDR-H2,CDR-H3
no signal,0 of 3,DFTLNSYGIS,VIYSDGRRTFYGDSYK,GRAAGTFFS
no signal,0 of 3,GFTLNSNGIS,VIYSDGNNTFYGDSVK,GRAAGTFDS
no signal,0 of 3,GFTLNSYGIG,VIYSDGRRTFYGDSVK,GRAGGTFYS
no signal,0 of 3,GFTINSYGIS,VIYSDGRRTFYGDMVC,GRAAGTFDS
no signal,0 of 3,GFTLNSYGIS,VIYSDGRRTFYGDSVF,GRAAGINDS
no signal,0 of 3,GFTLNSYGIS,VIYSDRRRTFYGASVK,GDAAGTFDS
no signal,0 of 3,GFTLNSYGIV,VIYSDGRRTFYEDSVK,VRAAGTFDS
no signal,0 of 3,GFTLNSYGIS,VIYSDVRRTGYGDSVK,GDAAGTFDS
no signal,0 of 3,GFTLSSYGIS,VIYSDGNRTFYGDGVK,GRAAGTFDS
no signal,0 of 3,GNTLNSYGIS,RIYSDGRRTFYGDSQK,GRAAGTFDS
no signal,0 of 3,GFTLNWYGIQ,VIYSDGRRYFYGDSVK,GRAAGTFDS
no signal,0 of 3,GFTLNSYGIS,AIYSDANRTFYGDSVK,GRAAGTFDS
no signal,0 of 3,GFTLNSYGIS,VIESDGRRTFYGDSVK,GRAAWTFDS
no signal,0 of 3,GFTLNSYGRS,VIYSDGRRTFYGDSVK,GTAAGTFDS
no signal,0 of 3,GITLNSYGIS,VIYSDGRRTFYGDSVK,GRAAWWFDS
no signal,0 of 3,GFTLNSYGCS,VIYQDGRRTFYGDSVK,GRAHGTFDS
no signal,0 of 3,GFTLNSYGIS,VIHSDGRRTFYGDSVK,GRAAGRFDS
no signal,0 of 3,GFTLNSYGIS,VIYSDGRRTFYGIIVK,GRAAGTFSS
no signal,0 of 3,GFTLNSYGCS,VIYSDGRRTFYFDSVK,GSAAGTFDS
no signal,0 of 3,GFTLNSYGIS,VIYSDFRRTFYGDSVK,GRAARTFDS
no signal,0 of 3,GFTLNSYGIS,VIYSDKRRTFYGDSVK,SRAAGCFDS
no signal,0 of 3,GFTLNSYQIS,VIYSDIRDTFYGDSVK,GRAAGTFDS
no signal,0 of 3,MFTHNSYGIS,VIYSDGARTFYGDSVK,GRAAGTFDS
no signal,0 of 3,GFTLNSYGWS,VIYSDGRRTFYGDSVK,GRAAGTFDH
no signal,0 of 3,GFTLNSYGIS,VIYSDGRETFYGDSVK,GWAAGKFDS
no signal,0 of 3,GFTLNSYGKS,VIYSDGTRTFYGDSVK,GRAAGTFDS

Parent in this assay: reference entry 0.65, copy in this library 4.11 (one replicate of three).